# Patent publication US6737397B1, “Control of cancer growth through the interaction of [MET5]-enkephalin and the zeta receptor” (The Penn State Research Foundation, priority 1996, dated 2004)
# Protein sequences, listed by entry. Tags and fused reporters are not part of them. Lines headed by an entry give the natural chain unless they say otherwise; changes in a name come on top.
# UniProt P41145: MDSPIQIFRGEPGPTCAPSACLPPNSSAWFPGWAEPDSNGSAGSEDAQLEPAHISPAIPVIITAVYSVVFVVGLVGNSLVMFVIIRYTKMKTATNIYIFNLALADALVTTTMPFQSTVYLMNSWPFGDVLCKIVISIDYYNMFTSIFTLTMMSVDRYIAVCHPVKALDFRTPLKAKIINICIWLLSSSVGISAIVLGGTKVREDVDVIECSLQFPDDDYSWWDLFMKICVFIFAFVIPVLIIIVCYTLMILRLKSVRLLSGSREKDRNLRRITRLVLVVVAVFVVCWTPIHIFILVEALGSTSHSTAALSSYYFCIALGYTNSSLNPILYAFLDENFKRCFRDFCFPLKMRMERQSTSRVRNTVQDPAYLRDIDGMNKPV
# Target: κ-opioid receptor (Homo sapiens, UniProt P41145)
# Test: [3H]U-69593 binding to HT-29 nuclear (P1) and membrane (P2) homogenates
smiles,measurement,setting,value
CN(C(=O)Cc1ccccc1)[C@H]1CC[C@@]2(CCCO2)C[C@@H]1N1CCCC1,"Bmax, fmol/mg protein",P1 fraction,*
same,"Kd, nM",P1 fraction,*
same,"Bmax, fmol/mg protein",P2 fraction,13.9 ± 1.5 fmol/mg protein
